Chains of the proteins cited; added tags and fusions are not shown.
UniProt P31652, whole entry: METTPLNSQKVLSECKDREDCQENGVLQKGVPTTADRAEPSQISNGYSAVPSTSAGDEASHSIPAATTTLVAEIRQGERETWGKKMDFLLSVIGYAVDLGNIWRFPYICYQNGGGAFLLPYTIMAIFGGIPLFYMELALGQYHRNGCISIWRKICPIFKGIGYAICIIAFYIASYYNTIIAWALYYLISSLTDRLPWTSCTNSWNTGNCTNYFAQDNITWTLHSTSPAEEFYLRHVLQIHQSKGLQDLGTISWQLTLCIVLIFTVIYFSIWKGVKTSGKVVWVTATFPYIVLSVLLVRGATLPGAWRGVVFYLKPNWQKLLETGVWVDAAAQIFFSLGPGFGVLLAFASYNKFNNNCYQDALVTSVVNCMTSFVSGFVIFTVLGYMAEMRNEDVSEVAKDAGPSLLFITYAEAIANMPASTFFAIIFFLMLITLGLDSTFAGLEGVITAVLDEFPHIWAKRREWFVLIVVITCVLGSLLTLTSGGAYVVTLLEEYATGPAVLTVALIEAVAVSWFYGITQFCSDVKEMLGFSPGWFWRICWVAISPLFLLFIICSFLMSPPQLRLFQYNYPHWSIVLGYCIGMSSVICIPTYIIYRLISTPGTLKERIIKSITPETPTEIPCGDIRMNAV

In ChEMBL document CHEMBL1131420, “Synthesis and biological properties of new 2beta-alkyl- and 2beta-aryl-3-(substituted phenyl)tropane derivatives: stereochemical effect of C-3 on affinity and selectivity for neuronal dopamine and serotonin transporters” (J Med Chem, 1998):

Legend:
[1] = biological target: T1, Sodium-dependent serotonin transporter (Rattus norvegicus, UniProt P31652); assay: Inhibitory activity on dopamine and serotonin transporters in striated membranes using [3H]- paroxetine; format: cell membranes
[2] = biological target: T1, Sodium-dependent serotonin transporter; assay: Binding affinity on dopamine and serotonin transporters in striated membranes using [3H]- paroxetine; format: cell membranes
[3] = biological target: T1, Sodium-dependent serotonin transporter; assay: Binding affinity for Serotonin transporter was determined by [3H]5-HT (serotonin) uptake by striated synaptosomes; format: subcellular, Brain
[4] = biological target: T1, Sodium-dependent serotonin transporter; assay: Inhibitory activity against Serotonin transporter was determined for [3H]5-HT (serotonin) uptake by striated synaptosomes; format: subcellular, Brain

Structure (SMILES): COC(=O)[C@H]1C(c2ccccc2)C[C@H]2CCC1N2C (stereo not given in full)
- IC50 [1]: 2710 nM
- Ki [2]: 135 nM
- Ki [3]: 186 nM
- IC50 [4]: 204 nM

Structure (SMILES): COC(=O)[C@@H]1C2CC[C@@H](C[C@@H]1OC(=O)c1ccccc1)N2C (single isomer, unassigned) [COCAINE]
- Ki [3]: 155 nM
